# PubChem BioAssay AID2551 (National Center for Advancing Translational Sciences (NCATS), 2010)
# Chains of the proteins cited; added tags and fusions are not shown. Lines headed by an entry give the natural chain unless they say otherwise; changes in a name come on top.
# UniProt P51450: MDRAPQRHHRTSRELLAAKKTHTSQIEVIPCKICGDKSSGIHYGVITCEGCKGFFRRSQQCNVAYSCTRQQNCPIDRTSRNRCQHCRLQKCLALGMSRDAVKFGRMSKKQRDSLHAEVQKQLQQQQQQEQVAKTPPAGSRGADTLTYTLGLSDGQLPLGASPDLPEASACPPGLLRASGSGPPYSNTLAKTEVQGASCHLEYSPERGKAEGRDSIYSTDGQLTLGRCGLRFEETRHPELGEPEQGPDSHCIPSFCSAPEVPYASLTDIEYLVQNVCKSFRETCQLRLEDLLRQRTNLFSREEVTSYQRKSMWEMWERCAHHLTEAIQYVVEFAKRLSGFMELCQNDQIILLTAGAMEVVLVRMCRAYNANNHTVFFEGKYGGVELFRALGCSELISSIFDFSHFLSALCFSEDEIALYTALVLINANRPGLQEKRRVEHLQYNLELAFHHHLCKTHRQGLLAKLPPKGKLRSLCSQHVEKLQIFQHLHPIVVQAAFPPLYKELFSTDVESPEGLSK
# About 17,000 (5.5%) of roughly 310,000 compounds were called active. Only results without a clear call are listed here; the source files them as inconclusive. Calls come from the whole dose curve; as a rule, active = well fitted inhibition curve with a large enough effect; inconclusive = small, poorly fitted or top-dose-only effect, or effect the other way; inactive = no such curve, though single readings can be large or run the other way.
# Molecular target: Nuclear receptor ROR-gamma (Mus musculus) (UniProt P51450)
# Test: qHTS for inhibitors of ROR gamma transcriptional activity; note: nearly all actives have a fitted effect of over 60% in size
# Conditions: Drosophila S2 Gal4-RORgamma UAS-luciferase reporter, 20 h
# Potency is the fitted concentration of half-maximal effect.
row,SMILES,Potency
1,CCC(C)N(CC(C)C)C(=S)SC(NC(C)=O)C(Cl)(Cl)Cl (centres undefined),inconclusive: 22.4 µM
2,Cc1cc(SC(NC=O)C(Cl)(Cl)Cl)ncn1 (centres undefined),inconclusive: 15.8 µM
3,COc1ccc2nc(NP(=O)(c3ccccc3)c3ccccc3)sc2c1,inconclusive: 8.91 µM
4,Cc1c2c(nc3ccccc13)SC(C(Cl)Cl)C2 (centres undefined),inconclusive: 20 µM
5,CS(=O)(=O)c1cc([N+](=O)[O-])c2no[n+]([O-])c2c1,inconclusive: 35.5 µM
6,O=[N+]([O-])CC(O)c1ccc([N+](=O)[O-])cc1 (centres undefined),inconclusive: 10 µM
7,CC(=O)NC(SC(=S)N(C)C)C(Cl)(Cl)Cl (centres undefined),inconclusive: 12.6 µM
8,Cc1ccc(OP(=O)(Nc2ccccn2)Oc2ccc(C)cc2)cc1,inconclusive: 14.1 µM
9,CC(=O)NC(SC(=S)N(CC(C)C)CC(C)C)C(Cl)(Cl)Cl (centres undefined),inconclusive: 17.8 µM
10,CCOc1ccc(C2=NCC(CBr)S2)cc1 (centres undefined),inconclusive: 35.5 µM
11,Cc1c2non([O-])c-2c(C)[n+](=O)[n+]1[O-],inconclusive: 14.1 µM
12,CC(C)(C)C(=O)NC(Sc1ccncn1)C(Cl)(Cl)Cl (centres undefined),inconclusive: 17.8 µM
13,O=[N+]([O-])c1cc([N+](=O)[O-])c(CCNc2ccccc2)c([N+](=O)[O-])c1,inconclusive: 10 µM
14,CC1CCN(C(=O)Oc2c(Cl)cc(Cl)c3cccnc23)CC1,inconclusive: 12.6 µM
